The source of these data is US10351547B2, “Somatostatin modulators and uses thereof” (priority 2016, dated 2019).

Sequences of proteins named here, by UniProt entry; tags and fusion partners are left off. A change or cut given only in a name is not applied to a line headed by its entry.
UniProt P30874: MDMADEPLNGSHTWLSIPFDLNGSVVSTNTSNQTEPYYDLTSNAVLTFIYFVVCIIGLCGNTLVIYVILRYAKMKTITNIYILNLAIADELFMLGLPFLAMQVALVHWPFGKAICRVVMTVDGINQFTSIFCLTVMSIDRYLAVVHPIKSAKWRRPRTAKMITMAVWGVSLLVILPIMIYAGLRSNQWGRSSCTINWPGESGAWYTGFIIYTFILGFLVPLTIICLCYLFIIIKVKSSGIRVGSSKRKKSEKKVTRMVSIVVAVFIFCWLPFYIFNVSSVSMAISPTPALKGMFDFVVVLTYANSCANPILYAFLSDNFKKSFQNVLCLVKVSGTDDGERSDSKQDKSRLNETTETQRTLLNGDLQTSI

The assay addresses human SSTR2 (Homo sapiens (Human), UniProt P30874). The assay can be described thus: Human SSTR2 intracellular cAMP functional assay for agonists (HTRF). It counts as cell-based. The method, then: Functional Assay for SSTR2 Agonists
General overview: All five SSTR subtypes are Gi coupled G-protein coupled receptors (GPCRs) that lead to decreases in intracellular cyclic AMP (cAMP) when activated by an agonist. […] Human SSTR2 intracellular cAMP assay is described below. The human SSTR1, 3, 4 and 5 assays follow the same protocol of SSTR2.
The cells are cultured at 37° C., 5% CO2 and 95% humidity. […] The cells are incubated for 20 minutes at 37° C. […] The cells are treated with 50 μL of lysis buffer (HRTF cAMP kit, Cisbio). […] The time-resolved fluorescent signal is read with a Tecan M1000Pro multiplate reader. The intracellular cAMP concentrations are calculated by regression to a standard curve and are plotted vs. the concentration of the compounds of the invention and the EC50 of the compounds are calculated using standard methods. All data manipulations are in GraphPad Prism v6.
On the technique in general: Time-resolved FRET reads energy transfer from a long-lived donor to a nearby acceptor.

The structures appear in SMILES notation. pEC50: −log10 of the molar value. Where only a bound is given, the exact number is not on record here.

For `N#Cc1cccc(-c2ccc3ncc(-c4cc(F)cc(F)c4)c(N4CC(C5COCCN5)C4)c3c2)c1O` (centres unmarked) [2-271, 3-[3-(3,5-difluorophenyl)-4-[3-(morpholin-3-yl)azetidin-1-yl]quinolin-6-yl]-2-hydroxybenzonitrile], the pEC50 (usually the negative decadic logarithm of the EC50, by convention in mol/L) was 7.00 to 8.00. On to `Cc1cc(F)cc(-c2cnc3ccc(-c4cccc(C#N)c4O)cc3c2N2CC(C3COCCN3)C2)c1` (centres unmarked) [2-270, 3-[3-(3-fluoro-5-methylphenyl)-4-[3-(morpholin-3-yl)azetidin-1-yl]quinolin-6-yl]-2-hydroxybenzonitrile], for which the pEC50 is over 8.00.
